Measurements reported in patent US20260242405A1, “N-DERIVATIZED SIALIC ACIDS AND RELATED SIALOSIDES” (THE REGENTS OF THE UNIVERSITY OF CALIFORNIA, priority 2023, published 2026).

What was measured:
[1] = biological target: N2-Dar21 (IAV neuraminidase) (Influenza A virus, UniProt A0A193ACB1); assay: Fluorescence-based inhibition assay (substrate Neu5Acα2-3GalβMU, β-galactosidase coupled); format: biochemical, influenza A virus A/Darwin/9/2021 (H3N2); conditions: inhibitor 8.0 μM; Example 3, Table 4
[2] = biological target: NB-Aus21 (IBV neuraminidase) (Influenza B virus, UniProt A0A1X9RX69); format: biochemical, influenza B virus B/Austria/1359417/2021; conditions: inhibitor 8.0 μM
[3] = biological target: N1-BR18 (IAV neuraminidase) (Influenza A virus, UniProt A0A0X9QTS2); assay: Fluorescence-based inhibition assay (substrate Neu5Acα2-3GalβMU, β-galactosidase coupled); format: biochemical, influenza A virus A/Brisbane/02/2018 (H1N1); conditions: inhibitor 8.0 μM
[4] = biological target: N2-Kan17 (IAV neuraminidase) (Influenza A virus, UniProt A0A193ACB1); assay: as above; format: biochemical, influenza A virus A/Kansas/14/2017 (H3N2); conditions: inhibitor 8.0 μM; Example 3, Table 4
[5] = substrate Neu5Acα2-3GalβMU 8.0 μM, Example 2, Table 2

SMILES: CC(=O)N[C@H]1[C@H]([C@H](O)[C@H](O)CO)OC(C(=O)O)=C[C@@H]1N=C(N)N [Zanamivir, 4-guanidino-2,3-dehydro-N-acetylneuraminic acid, reference compound]
- percentage inhibition against N2-Dar21 [1]: 99.7%
- Percentage inhibition against NB-Aus21 (IBV) [2, 5]: 99.9 ± 0.0%
- percentage inhibition against NB-NB-Aus21 ([2]; Example 3, Table 4): 99.1%
- Percentage inhibition against N1-BR18 (IAV) [3, 5]: 98.5 ± 0.1%
- percentage inhibition against N1-BR18 ([3]; Example 3, Table 4): 99.6%
- percentage inhibition against N2-Kan17 [4]: 95.6%
